# Data: ChEMBL document CHEMBL4007421, “Discovery and Preclinical Characterization of 3-((4-(4-Chlorophenyl)-7-fluoroquinoline-3-yl)sulfonyl)benzonitrile, a Novel Non-acetylenic Metabotropic Glutamate Receptor 5 (mGluR5) Negative Allosteric Modulator for Psychiatric Indications” (J Med Chem, 2017)
# By UniProt entry, the sequences of proteins in these tests, tags left out.
# UniProt P31424, whole entry: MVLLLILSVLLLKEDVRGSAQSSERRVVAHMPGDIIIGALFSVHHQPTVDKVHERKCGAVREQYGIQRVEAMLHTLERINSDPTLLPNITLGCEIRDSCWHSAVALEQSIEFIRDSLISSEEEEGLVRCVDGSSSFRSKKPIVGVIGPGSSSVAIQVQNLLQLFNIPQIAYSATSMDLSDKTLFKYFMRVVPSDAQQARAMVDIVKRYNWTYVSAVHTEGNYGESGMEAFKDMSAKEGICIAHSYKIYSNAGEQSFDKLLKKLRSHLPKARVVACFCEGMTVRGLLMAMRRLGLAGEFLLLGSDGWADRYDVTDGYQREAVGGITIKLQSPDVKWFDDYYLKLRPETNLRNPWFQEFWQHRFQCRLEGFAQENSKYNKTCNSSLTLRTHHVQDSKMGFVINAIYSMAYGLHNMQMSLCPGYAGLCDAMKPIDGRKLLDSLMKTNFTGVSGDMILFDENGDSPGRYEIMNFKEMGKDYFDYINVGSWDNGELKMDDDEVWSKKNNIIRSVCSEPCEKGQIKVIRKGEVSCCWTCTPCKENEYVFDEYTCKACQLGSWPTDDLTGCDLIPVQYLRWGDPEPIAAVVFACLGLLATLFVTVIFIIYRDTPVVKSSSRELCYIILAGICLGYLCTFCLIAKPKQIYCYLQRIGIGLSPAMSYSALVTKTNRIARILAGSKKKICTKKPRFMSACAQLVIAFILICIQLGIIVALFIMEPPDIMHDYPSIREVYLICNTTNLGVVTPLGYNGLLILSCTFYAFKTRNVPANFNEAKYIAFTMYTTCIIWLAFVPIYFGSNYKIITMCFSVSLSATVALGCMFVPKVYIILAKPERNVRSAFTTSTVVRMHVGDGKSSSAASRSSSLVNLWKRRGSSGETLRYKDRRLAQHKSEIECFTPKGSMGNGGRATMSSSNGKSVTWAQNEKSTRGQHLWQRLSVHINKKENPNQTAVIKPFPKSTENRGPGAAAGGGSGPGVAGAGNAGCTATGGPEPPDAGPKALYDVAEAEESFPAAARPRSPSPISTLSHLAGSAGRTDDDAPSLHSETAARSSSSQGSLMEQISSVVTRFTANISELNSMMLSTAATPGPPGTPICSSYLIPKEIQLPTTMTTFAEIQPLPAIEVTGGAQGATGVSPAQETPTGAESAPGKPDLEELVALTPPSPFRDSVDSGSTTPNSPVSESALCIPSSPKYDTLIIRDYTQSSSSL
# Target: Metabotropic glutamate receptor 5 (Rattus norvegicus, UniProt P31424)
# Assay: Displacement of [3H]M-MPEP from mGluR5 in Sprague-Dawley rat cerebrocortical membranes after 60 mins
structure (smiles),measurement,value
Cc1cccc(C#Cc2ccccc2)n1,Ki,9.6 nM
